Literature values, collected in patent US6767992B1, “Method for producing L-prolyl-L-M-sarcolysyl-L-p-fluorophenylalanine and derivatives thereof” (PTC Pharma AG, priority 2001, dated 2004).

System: melanoma cells

In the case of “L-prolyl-L-m-sarcolysyl-L-p-fluorophenylalanine [PSF]”, the “cytotoxicity compared with peptichemio itself” value is given as “considerably higher cytotoxicity”.
